Amino acid sequences for entries named in this document (tags omitted).
UniProt O75874, whole entry R132C: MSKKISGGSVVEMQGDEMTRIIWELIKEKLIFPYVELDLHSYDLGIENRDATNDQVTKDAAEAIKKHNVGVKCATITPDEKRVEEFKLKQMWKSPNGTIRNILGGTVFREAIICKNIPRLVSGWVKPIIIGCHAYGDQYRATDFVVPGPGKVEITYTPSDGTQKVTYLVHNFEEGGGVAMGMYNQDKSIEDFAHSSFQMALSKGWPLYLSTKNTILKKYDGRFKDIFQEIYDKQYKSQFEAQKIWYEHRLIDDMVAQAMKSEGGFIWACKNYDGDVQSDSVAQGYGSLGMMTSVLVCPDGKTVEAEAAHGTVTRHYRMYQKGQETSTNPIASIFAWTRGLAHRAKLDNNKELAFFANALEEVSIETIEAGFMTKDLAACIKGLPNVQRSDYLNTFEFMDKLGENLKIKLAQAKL
UniProt O75874, whole entry R132H: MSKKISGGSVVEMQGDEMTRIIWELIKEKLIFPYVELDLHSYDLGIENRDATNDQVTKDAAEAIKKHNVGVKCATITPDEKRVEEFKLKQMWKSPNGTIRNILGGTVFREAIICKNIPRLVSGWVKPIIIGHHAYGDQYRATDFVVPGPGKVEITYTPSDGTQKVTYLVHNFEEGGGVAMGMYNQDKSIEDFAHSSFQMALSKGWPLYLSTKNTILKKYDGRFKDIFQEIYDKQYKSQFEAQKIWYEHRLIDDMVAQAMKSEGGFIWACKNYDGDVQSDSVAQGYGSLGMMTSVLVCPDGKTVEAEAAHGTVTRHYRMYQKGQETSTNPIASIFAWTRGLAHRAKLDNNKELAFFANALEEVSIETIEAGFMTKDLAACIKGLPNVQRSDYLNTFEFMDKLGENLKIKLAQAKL

According to patent US10836759B2, “Thiazole derivatives useful as mutant IDH1 inhibitors for treating cancer” (THE UNITED STATES OF AMERICA, AS REPRESENTED BY THE …, priority 2016, dated 2020):

Columns and labels:
IDH1 R132H = IDH1 R132H (Homo sapiens, UniProt O75874, R132H); test: Enzymatic inhibition assay, mutant IDH1 R132H (NADPH depletion coupled to diaphorase/resazurin); conditions: read-out: Data for R132H; IDH1 R132H enzyme, IC50 class
IDH1 R132C = IDH1 R132C (Homo sapiens, UniProt O75874, R132C); test: Enzymatic inhibition assay, mutant IDH1 R132C (NADPH depletion coupled to diaphorase/resazurin); conditions: read-out: Data for R132C; IDH1 R132C enzyme, IC50 class

SMILES	pIC50 (IDH1 R132H)	pIC50 (IDH1 R132C)
CCc1cccc(CC)c1-n1c(C=C(C)C)c(C(=O)N2C[C@H]3CC[C@@H](C2)N3)cc(-c2nc(-c3ccc(C(F)(F)F)cc3)cs2)c1=O	> 6.52	> 6.52
CCc1cccc(CC)c1-n1c(C=C(C)C)c(C(=O)N2C[C@H]3CC[C@@H](C2)N3)cc(-c2nc(-c3ccc(Cl)cc3)cs2)c1=O	> 6.52	> 6.52

pIC50: −log10 of the molar value.
